# Screening data: PubChem BioAssay, Broad Institute
# This is a sample that favours compounds with a hit; in the whole collection about 2.2% have one here.
# PDI turbidity – inhibitors of human protein disulfide isomerase. inhibition, % at 10 µM. P07237. 350,000 tested, 0.052% active. AID 588391. PDI insulin aggregation turbidity, A650, 90 min;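 active = mean inhibition across replicates of 30% or more, whatever share of single replicates reach that level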
# UUG fidelity – modulators of yeast start codon fidelity, primary screen, whole organism, S. cerevisiae, single point, plate reader; S. cerevisiae UUG-firefly luciferase reporter, luminescence/redox ratio; activity score, % at 18.7 µM; actives 0.13% (n = 350,000); AID 602363, 2012;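 active = replicate mean at a twofold rise or more, about +100% in these data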;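 also: firefly luciferase made from a UUG start codon reports start codon fidelity; reporter light over untreated wells divided by growth signal over untreated wells; some hits fall short of that in this replicate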
# FGF22 binding-1 – binders of recombinant human FGF22 by thermal shift; 340,000 tested, 1.5% active; activity (Tm shift, normalised), % at 9.99 µM; SYPRO orange fluorescence; percent of sucrose octasulfate shift, DMSO zero; AID 651658; Q9HCT0;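 active = mean Tm shift, scaled 0 neutral to 100 positive control, at about 1.3% or above, every replicate too, limit read from the data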
# S100A4 MyoIIA – inhibitors of human S100A4 binding to myosin IIA peptide | inhibition, % at 10.7 µM | S100A4/TAMRA-MyoIIA peptide fluorescence polarization | P26447 | 360,000 tested, 0.14% active;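 active = mean inhibition of at least 70% across replicates, with every replicate also reaching that level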
#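 incubation = readout 5 min after mixing, signal stable up to 60 min | system = S100A4 monomer protein | buffer or medium = HEPES pH 7.2 with CaCl2, KCl, NaCl, DTT, Triton | benchmarks = neutral control DMSO, positive control TFP | also added = fluorescent myosin IIA peptide, 5 nM | compound dosing = one concentration per compound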
# ERp5 block – blocks human ERp5 reductase activity on insulin | AID 651711 | Q15084 | inhibition, % at 9.99 µM | ERp5 insulin aggregation, absorbance 650 nm, 90 min | 350,000 tested, 0.05% active;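 active = mean replicate inhibition above about 25%, with every replicate also reaching it, limit read from the data, passing the limit was not always enough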
# SIRT5 inh – blocks human SIRT5 desuccinylation of peptide; Purified SirT5, succinyl-peptide AMC, trypsin-coupled fluorescence; inhibition, % at 15 µM; Q9NXA8; 330,000 tested, 1.1% active; in the data active = inhibition above about 15%
# FGF22 binding-2 – binders of human FGF22 by thermal shift | shares compounds with FGF22 binding-1 | recombinant FGF22 thermal shift, SYPRO orange fluorescence | thermal shift activity, °C (ΔTm) at 38 µM | 1,000 tested, 2% active | AID 720646;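 active = fitted rise in melting shift crosses a set limit at or below the top valid dose tested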
# TSA no protein – counter-screen for FGF22 binders: compound-only thermal shift, no protein; 1,000 tested, 2% active; AC50, µM (top dose mostly 38 µM); compound-only SYPRO orange thermal shift counter-screen; shares compounds with FGF22 binding-1;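 active = rising signal whose fitted curve reaches the 0.54 level within the top valid dose, showing a melting point, actives reach about 13 µM in these data; inactive = the rest, including activity in the opposite direction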; note: value is where the raw curve crosses a fixed level and not half-maximal
# Numbers without * were called inactive; i = inactive; / = no result given; [ ] = another dose, or the depositor's remark.
molecule	UUG fidelity	TSA no protein	FGF22 binding-1	S100A4 MyoIIA	FGF22 binding-2	SIRT5 inh	ERp5 block	PDI turbidity
O=[N+]([O-])c1ccccc1S(=O)(=O)Nc1nc2ccccc2s1	-18.7	/	0.7	-6.8	/	-1.1	6.4	-3.4
O=[N+]([O-])c1ccc2nc(NS(=O)(=O)c3ccccc3[N+](=O)[O-])sc2c1	-16.3	i	2.4*	-1.0	-0.439	2.0	-0.4	13.1
CSc1nc2nc(Cl)c(Cl)nc2[nH]1	17.0	i	1.4*	3.0	0.039	/	-3.1	-7.2
CCOC(=O)CSc1nc2nc(Cl)c(Cl)nc2[nH]1	-16.4	/	0.6	-7.6	/	-53.5	-11.3	-2.0
COc1ccc2c3c([nH]c2c1)[C@@H](CO)N(C(=O)c1ccncc1)CC31CCN(C(=O)c2ccncc2)CC1	/	/	0.0	7.8	/	-2.4	-8.0	/
O=C(O)C1CSC2(CCN(Cc3ccccc3)CC2)N1 (stereo not drawn)	3.5	i	39.0*	3.6	0.148	0.6	-2.0	-1.3
O=C(Cc1ccccc1)NC1CCN(Cc2ccccc2)CC1	/	/	0.1	-3.0	/	2.8	0.8	-1.6
O=C(C1=C[C@@H](c2ccc3c(c2)OCO3)C[C@@H](OCc2ccc(CO)cc2)O1)N1CCN(Cc2ccccc2)CC1	/	/	-0.4	60.7	/	4.8	1.7	/
O=C(Nc1nccs1)c1ccc(S(=O)(=O)NCc2cccs2)cc1	-26.1	i	1.4*	-3.6	-0.055	-1.3	-0.1	-5.4
O=C(c1cnccn1)N1CC(=O)N2[C@H](CO)[C@H](c3ccc(-c4cccc(F)c4)cc3)[C@H]2C1	/	/	-0.1	7.5	/	/	0.7	/
Cc1cccc(NC(=O)COc2coc(CN3CCc4ccccc4C3)cc2=O)c1	-0.8	i	7.0*	14.0	-0.023	0.0	-3.3	-3.7
Cc1ccc(C)c(NC(=O)COc2coc(CN3CCc4ccccc4C3)cc2=O)c1	-5.6	/	-0.4	-10.7	/	-2.9	-0.8	-5.4
Cn1cnc(S(=O)(=O)N2C[C@@H](O)COC[C@@H]3O[C@H](CC(=O)N4CCN(c5ccccc5)CC4)CC[C@H]32)c1	-5.7	/	0.0	-5.4	/	-0.4	-10.9	/
CC(C)[C@H](CN(N=O)[C@@H](Cc1ccccc1)CN(C)N=O)N(CCc1ccccc1)N=O	-10.3	/	-0.3	3.3	/	-12.0	1.8	-1.8
CC(C)C[C@@H](CN(C)N=O)N(C[C@H](Cc1ccccc1)N(CCc1ccccc1)N=O)N=O	-12.4	i	1.6*	-11.4	0.029	10.4	2.9	-2.1
O=C(Cc1ccncc1)N[C@H]1CC[C@@H](CCn2cc(-c3ccccc3F)nn2)O[C@H]1CO	5.5	/	0.2	1.8	/	0.0	-6.0	/
O=S(=O)(Nc1cccc(-n2cnnn2)c1)c1ccc(Cl)cc1	/	i	1.7*	-5.2	0.181	-2.6	1.1	0.9
Cc1cccc(Cn2ncc(Cl)c(Cl)c2=O)c1	-2.9	i	38.9*	-7.6	0.012	-3.2	-0.4	0.3
Cc1ccc(C)c(C(=O)Cn2ncc(Cl)c(Cl)c2=O)c1	/	/	/	/	/	/	/	-0.7
CC(C)NC(=O)N1Cc2cc(C(=O)NCC(F)(F)F)nc(-c3cccc(-c4cc5ccccc5o4)c3)c2[C@H]1CCO	/	/	/	-6.0	/	7.9	-6.7	/
CCOC(=O)c1ccc(Oc2cn[nH]c2-c2ccc(O)cc2O)cc1	-9.9	/	/	12.4	/	3.1	1.0	1.6
CCCOC(=O)c1ccc(Oc2cn[nH]c2-c2ccc(O)cc2O)cc1	/	i	1.5*	2.7	0.402	3.6	-0.7	-0.3
CO[C@@H](CN(C)S(=O)(=O)c1cccc(Cl)c1)[C@@H](C)CN([C@H](C)CO)S(=O)(=O)c1cccc(Cl)c1	/	i	1.6*	-5.2	0.25[42 µM]	0.7	3.4	/
CO[C@H](CN(C)S(=O)(=O)c1cccc(Cl)c1)[C@H](C)CN([C@@H](C)CO)S(=O)(=O)c1cccc(Cl)c1	/	i	1.8*	-7.9	0.12[42 µM]	0.0	0.5	/

# Arranged by SMILES length (falling): 3 of the compounds above
molecule	UUG fidelity	TSA no protein	FGF22 binding-1	S100A4 MyoIIA	FGF22 binding-2	SIRT5 inh	ERp5 block	PDI turbidity
Cn1cnc(S(=O)(=O)N2C[C@@H](O)COC[C@@H]3O[C@H](CC(=O)N4CCN(c5ccccc5)CC4)CC[C@H]32)c1	-5.7	/	0.0	-5.4	/	-0.4	-10.9	/
CC(C)C[C@@H](CN(C)N=O)N(C[C@H](Cc1ccccc1)N(CCc1ccccc1)N=O)N=O	-12.4	i	1.6*	-11.4	0.029	10.4	2.9	-2.1
CSc1nc2nc(Cl)c(Cl)nc2[nH]1	17.0	i	1.4*	3.0	0.039	/	-3.1	-7.2

# Additional results:
molecule	UUG fidelity	TSA no protein	FGF22 binding-1	S100A4 MyoIIA	FGF22 binding-2	SIRT5 inh	ERp5 block	PDI turbidity
CO[C@H](CN(C)S(=O)(=O)c1cccc(Cl)c1)[C@@H](C)CN([C@H](C)CO)S(=O)(=O)c1ccc(Cl)cc1	/	/	-0.1	18.7	/	-0.4	0.1	/
CO[C@H](CN(C)S(=O)(=O)c1cccc(Cl)c1)[C@H](C)CN([C@H](C)CO)S(=O)(=O)c1cccc(Cl)c1	/	i	2.0*	12.3	-0.036[42 µM]	-5.7	2.4	/
COc1ccc2c3c(n(C)c2c1)[C@H](CO)N(C(=O)c1ccccc1)CC31CN(C)C1	/	/	-0.1	/	/	/	/	/
C[C@H](CO)N1C[C@H](C)[C@@H](CN(C)C(=O)CCCN(C)C)OCCCC[C@H](C)Oc2ccc(NS(C)(=O)=O)cc2C1=O	13.7	/	0.1	-17.0	/	0.8	2.1	/
COc1cc2oc(-c3ccc(O)cc3)cc(=O)c2c(OC)c1O	-10.7	/	-0.9	-2.3	/	7.3	0.7	-14.0
COc1cc2oc(-c3ccc(O)cc3)cc(=O)c2c(O)c1OC	-6.8	i	10.1*	20.2	-0.085	/	-2.3	/
CCC(=O)N1[C@@H](CO)[C@H](c2ccccc2)[C@@H]1CN(C)C(=O)CN1CCOCC1	-11.8	/	0.7	2.8	/	-1.5	-2.1	/
CCC(=O)N1[C@H](CO)[C@@H](c2ccccc2)[C@H]1CN(C)C(=O)CN1CCOCC1	-4.3	i	1.6*	0.8	-0.027	0.8	-0.8	/

# Results in S100A4 MyoIIA and UUG fidelity, for some of the entries so far:
compound,S100A4 MyoIIA,UUG fidelity
CO[C@H](CN(C)S(=O)(=O)c1cccc(Cl)c1)[C@@H](C)CN([C@H](C)CO)S(=O)(=O)c1ccc(Cl)cc1,18.7,/
CO[C@H](CN(C)S(=O)(=O)c1cccc(Cl)c1)[C@H](C)CN([C@H](C)CO)S(=O)(=O)c1cccc(Cl)c1,12.3,/

# Remaining list, next part.
molecule	UUG fidelity	TSA no protein	FGF22 binding-1	S100A4 MyoIIA	FGF22 binding-2	SIRT5 inh	ERp5 block	PDI turbidity
CCN(CCn1cccn1)C(=O)CCc1nnc(Cc2c[nH]c3ccccc23)o1	/	i	12.3*	-1.1	0.234	-4.5	1.9	9.9
O=C(O)C1CSC(c2ccc(O)c([N+](=O)[O-])c2)N1 (stereo not drawn)	/	/	0.0	-0.3	/	/	1.2	2.5
O=C(O)C1CSC(c2ccc3c(c2)OCO3)N1 (stereo not drawn)	1.0	i	2.7*	-11.6	0.108	6.9	0.2	-0.7
C[C@H](CO)N1C[C@H](C)[C@H](CN(C)Cc2ccc(-c3ccccc3)cc2)Oc2c(NC(=O)C3CCCCC3)cccc2C1=O	8.3	/	/	/	/	/	/	/
C[C@@H]1CN([C@@H](C)CO)S(=O)(=O)c2ccc(C3=CCCCC3)cc2O[C@H]1CN(C)Cc1cccnc1	-2.5	/	-0.7	-11.0	/	4.8	1.9	/
COc1cc(NS(=O)(=O)c2ccc(NS(=O)(=O)c3ccc(C)cc3)cc2)nc(OC)n1	11.6	i	3.1*	-48.7	-0.025	-26.9	-10.4	-1.9
CC(=O)C1=C(O)C(=O)N(c2ccc(S(=O)(=O)Nc3nccs3)cc2)C1c1ccc([N+](=O)[O-])cc1 (stereo not drawn)	/	/	0.4	-2.7	/	2.6	3.2	-2.7
CC(=O)C1=C(O)C(=O)N(c2ccc(S(=O)(=O)Nc3nccs3)cc2)C1c1ccc(F)cc1 (stereo not drawn)	-17.4	i	1.7*	-1.1	-0.031	4.3	-0.2	0.3
